Test results from US20080220446A1, “Method for Detecting and/or Removing Protein and/or Peptide Comprising a Cross-Beta Structure From an Aqueous Solution Comprising a Protein” (priority 2005, published 2008).

Chains of the proteins cited; added tags and fusions are not shown. Residues count along the entry.
UniProt P00750, 36-562: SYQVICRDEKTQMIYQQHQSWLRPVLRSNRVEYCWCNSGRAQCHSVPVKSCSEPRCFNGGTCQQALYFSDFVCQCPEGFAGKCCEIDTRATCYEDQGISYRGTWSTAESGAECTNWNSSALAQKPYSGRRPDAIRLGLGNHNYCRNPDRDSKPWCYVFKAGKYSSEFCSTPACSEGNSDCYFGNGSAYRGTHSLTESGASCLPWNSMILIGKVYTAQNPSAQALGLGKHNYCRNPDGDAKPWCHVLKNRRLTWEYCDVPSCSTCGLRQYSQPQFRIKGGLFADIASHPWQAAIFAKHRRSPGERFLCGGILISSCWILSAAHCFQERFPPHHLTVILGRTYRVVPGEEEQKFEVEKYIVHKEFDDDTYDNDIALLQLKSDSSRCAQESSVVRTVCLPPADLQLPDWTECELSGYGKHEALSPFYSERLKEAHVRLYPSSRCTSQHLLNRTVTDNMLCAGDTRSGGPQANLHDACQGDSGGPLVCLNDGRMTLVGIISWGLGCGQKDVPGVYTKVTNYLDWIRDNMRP

Key:
[1] = Congo red fluorescence enhancement by biopharmaceuticals; type: physicochemical; conditions: +/− SD; five μL of protein therapeutic
Procedure: (§1) Background signals from buffer, buffer with Congo red and protein/peptide solution without Congo red were subtracted from corresponding measurements with protein solution incubated with Congo red. Fluorescence was measured in triplicate on a Hitachi F-4500 fluorescence spectrophotometer (Ltd., Tokyo, Japan).
(§2) Protein therapeutics were obtained from the local hospital pharmacy and analyzed within the expiry limits as stated by the manufacturers.
(§3) Fluorescence of Thioflavin T (ThT; Sigma T-3516, St. Louis, Mo., USA) and Congo red (CR; Aldrich Chemical Company Inc., Milwaukee, Wis., USA) was measured on a Hitachi F-4500 spectrophotometer at an excitation wavelength of 435 nm and emission wavelength of 485 nm for ThT and an excitation wavelength of 550 nm and emission wavelength of 595 nm for Congo red. […] Fluorescence was measured in triplicate. Background fluorescence of both protein in buffer and dye-solution were subtracted from the total fluorescence signal. Five μg/mL fibrillar amyloid-β(1-40) E22Q (Peptide Synthesis Facility of the Dutch Cancer Institute NKI, Amsterdam, The Netherlands) was used as a positive control in all fluorescence assays.

[2] = ThT fluorescence enhancement by biopharmaceuticals; type: physicochemical; conditions: +/− SD; five μL of protein therapeutic
Procedure: Fluorescence of ThT—protein/peptide adducts was measured as follows. […] Fluorescence was measured at 485 nm upon excitation at 435 nm. Background signals from buffer, buffer with ThT and protein/peptide solution without ThT were subtracted from corresponding measurements with protein solution incubated with ThT. Regularly, fluorescence of Aβ was used as a positive control, and fluorescence of FP10, a non-amyloid fibrin fragment^16, was used as a negative control. Fluorescence was measured in triplicate on a Hitachi F-4500 fluorescence spectrophotometer (Ltd., Tokyo, Japan).
β2-GPI was reduced and alkylated as follows. Sixhundredforty μl of β2-GPI stock was mixed with 640 μl of 8 M Urea (cooled solution) in 0.1 M Tris pH-8.2. […]
as §2
as §3, with “Five μg/mL fibrillar amyloid-β(1-40) E22Q (Peptide Synthesis Facility of the Dutch Cancer Institute NKI, Amsterdam, The Netherlands) was used as a positive control in all fluorescence assays.” left out

[3] = Thioflavin T fluorescence of protein solutions; type: physicochemical
Procedure: Fluorescence of ThT—protein/peptide adducts was measured as follows. Solutions of 25 μg ml^−1 of protein or peptide preparations were prepared in 50 mM glycine buffer pH 9.0 with 25 μM ThT. Fluorescence was measured at 485 nm upon excitation at 435 nm. Background signals from buffer, buffer with ThT and protein/peptide solution without ThT were subtracted from corresponding measurements with protein solution incubated with ThT. Regularly, fluorescence of Aβ was used as a positive control, and fluorescence of FP10, a non-amyloid fibrin fragment^16, was used as a negative control. Fluorescence was measured in triplicate on a Hitachi F-4500 fluorescence spectrophotometer (Ltd., Tokyo, Japan).
Formulated protein therapeutics were obtained from the local hospital pharmacy and were used as supplied by the manufacturers. […] Lyophilized therapeutics were dissolved according to the manufacturers recommendations. GH, zinc-insulin, Cealb and gelatin were stored at −20, 4, room temperature, 37 and 65° C. Other protein therapeutics were only kept at 4° C., and assayed for the presence of cross-β structure at shown time points. Enhancement in fluorescence of ThT and Congo red was measured with all formulated protein therapeutics. For this purpose, proteins were diluted to the indicated concentrations. In addition, tPA binding to the protein therapeutics was analyzed by ELISA and activation of tPA was tested using the Plg-activation assay. Zinc-insulin was diluted tenfold in the activation assay, GH was diluted to a final concentration of 500 μg ml^−1. Activation of factor XII and prekallikrein by the therapeutics was tested in the chromogenic factor XII assay (see above). For tPA ELISAs, 5 μg ml^−1 of the protein therapeutics were coated onto Greiner high-binding Microlon plates (#655092, Greiner Bio-One, Alphen a/d Rijn, The Netherlands). After coating, plates were blocked with Blocking Reagent (Roche Diagnostics, Almere, The Netherlands). A concentration series of tPA or K2P-tPA in PBS with 0.1% v/v Tween-20 and 10 mM ε-amino caproic acid was applied and the plates were incubated for 1 h at room temperature with constant swirling. Binding of tPA was assessed with monoclonal antibody 374b that binds to the protease domain of both tPA and K2P-tPA (American Diagnostica, Tebu-Bio, The Netherlands), peroxidase-conjugated rabbit anti-mouse immunoglobulins (RAMPO, P0260, DAKOCytomation, Glostrup, Denmark), and stained with 3′3′5′5′-tetramethylbezidine (TMB, catalogue number 4501103, buffer, catalogue number 4501401, Biosource Int., Camarillo, Calif., USA).
ThT fluorescence of β2GPI was measured as follows. […] CL vesicles were prepared according to an established procedure. Briefly, CL was dried under a stream of nitrogen. […] In the ThT fluorescence assay, fluorescence of β2GPI in buffer, of CL or DXS500k in buffer, of buffer and ThT alone, and of β2GPI-CL adducts and β2GPI-DXS500k adducts, with or without ThT, was recorded as described above (section ThT fluorescence). In addition, TEM images were recorded with CL, β2GPI from human plasma, with or without CL, and with recombinant β2GPI, as described^5.
To prepare structurally altered ovalbumin (OVA) with amyloid cross-β structures, purified OVA (Sigma, A-7641, lot 071k7094) was heated to 85° C. […] Native OVA (nOVA) and heat-denatured OVA (dOVA) were tested in the ThT fluorescence assay and in the Plg-activation assay. In the fluorescence assay and in the Plg-activation assay, 25 and 100 μg ml^−1 nOVA and dOVA were tested, respectively. […]

[4] = Congo red fluorescence of protein solutions; type: physicochemical; conditions: stored at the recommended storage temperature of 4° C.
Procedure: as §1, with “Solutions of 25 μg ml^−1 protein/peptide were incubated with 25 μM Congo red in PBS and fluorescence was measured at 590 nm upon excitation at 550 nm. Background” for “Background”
Formulated protein therapeutics were obtained from the local hospital pharmacy and were used as supplied by the manufacturers. […] Lyophilized therapeutics were dissolved according to the manufacturers recommendations. […] Enhancement in fluorescence of ThT and Congo red was measured with all formulated protein therapeutics. […] In addition, tPA binding to the protein therapeutics was analyzed by ELISA and activation of tPA was tested using the Plg-activation assay. […] Binding of tPA was assessed with monoclonal antibody 374b that binds to the protease domain of both tPA and K2P-tPA (American Diagnostica, Tebu-Bio, The Netherlands), peroxidase-conjugated rabbit anti-mouse immunoglobulins (RAMPO, P0260, DAKOCytomation, Glostrup, Denmark), and stained with 3′3′5′5′-tetramethylbezidine (TMB, catalogue number 4501103, buffer, catalogue number 4501401, Biosource Int., Camarillo, Calif., USA).

tPA = tPA (Homo sapiens, UniProt P00750); experiment: Plasminogen-activation assay (tPA activation, S-2251); type: biochemical; conditions: Example 4; native, heat-denatured or alkylated preparation as labelled
Procedure: Plasmin (Pls) activity was assayed as described^16. Peptides and proteins that were tested for their stimulatory ability were regularly used at 100 μg ml^−1. The tPA and plasminogen (Plg) concentrations were 200 μM and 1.1 μM, respectively, unless stated differently. Chromogenic substrate S-2251 (Chromogenix, Instrumentation Laboratory SpA, Milano, Italy) was used to measure Pls activity. Conversion of zymogen factor XII (#233490, Calbiochem, EMD Biosciences, Inc., San Diego, Calif.) to proteolytically active factor XII (factor XIIa) was assayed by measurement of the conversion of chromogenic substrate Chromozym-PK (Roche Diagnostics, Almere, The Netherlands) by kallikrein. Chromozym-PK was used at a concentration of 0.3 mM. […] The conversion of Chromozym-PK was recorded kinetically at 37° C. for at least 60 minutes. […] In control wells factor XII was omitted from the assay solutions and no conversion of Chromozym-PK was detected. […]
Formulated protein therapeutics were obtained from the local hospital pharmacy and were used as supplied by the manufacturers. […] Enhancement in fluorescence of ThT and Congo red was measured with all formulated protein therapeutics. […] In addition, tPA binding to the protein therapeutics was analyzed by ELISA and activation of tPA was tested using the Plg-activation assay. […]

[5] = Example 4, native, heat-denatured or alkylated preparation as labelled

With “Albumin: human albumin, plasma purified drug product (Cealb, Sanquin-CLB)” the “Fluorescence CR” value [1] was 978 +/− 2 a.u, the “Fluorescence ThT” value [2] was 1970 +/− 5 a.u and the “enhancement of ThT fluorescence” value ([3]; stored at 4° C.) was “enhance fluorescence of ThT”. The “enhancement of Congo red fluorescence” value [4] was “enhanced the fluorescence of Congo red”.

For “alkylated MSA: reduced-alkylated murine serum albumin [reference compound]”, the “enhancement of ThT fluorescence” value [3, 5] was “enhance ThT fluorescence to a similar extent” and the “presence of cross-β structure conformation” value ([3]; conclusion from ThT fluorescence, Plg-activation assay and TEM) was “comprise the cross-β structure conformation”.

With “heat-denatured MSA: murine serum albumin heat denatured at 85° C. [reference compound]” the “enhancement of ThT fluorescence” value [3, 5] was “enhance ThT fluorescence to a similar extent”.

In the case of “native MSA: murine serum albumin [reference compound]”, the tPA activating potential (tPA) is reported as “not reflected by stimulation of tPA activation” and the “enhancement of ThT fluorescence” value [3, 5] is reported as “enhanced ThT fluorescence to some extent”.
